According to US12115222B2, “Compositions and methods for improving the solubility of erectile dysfunction therapeutics” (Villya LLC, priority 2023, dated 2024):
Where two headings read alike, the source gives them in different places.

Settings: Example 30

With `O=C(C1CCCCC1)N1CC(=O)N2CCc3ccccc3C2C1` (centres unmarked) [Praziquantel] the “appearance in deionized water after the ethanol step” value (from here on “appearance in deionized water”) (rubusoside:praziquantel 1:1 w/w) was “not soluble”, the “appearance in deionized water” value (rubusoside:praziquantel 2:1 w/w) was “hazy solution with some particles” and the “appearance in deionized water” value (rubusoside:praziquantel 3:1 w/w) was “slightly hazy solution with no discernable particles”. For the same compound, the “appearance in water after the ethanol step” value (“appearance in water” below) (rubusoside:praziquantel 4:1 w/w) was “hazy solution”, the “appearance in water” value (rubusoside:praziquantel 5:1 w/w) was “slightly hazy solution with visible particles” and the “appearance in water” value (rubusoside:praziquantel 6:1 w/w) was “slightly hazy solution with no particles present”. For the same compound, the “appearance in water” value (rubusoside:praziquantel 7:1 w/w) was “readily soluble with no particles observed” and the “appearance in deionized, distilled water after the ethanol step” value (rubusoside:praziquantel 9:1 w/w) was “readily soluble”.
